The target of this assay is HIV-1 IN in presence of LEDGF/p75 (Human immunodeficiency virus type 1 group M subtype B, UniProt P03366). Description: HIV-1 IN/LEDGF HTRF LEDGF-dependent integration assay. In general terms: TR-FRET usually uses a lanthanide donor and a delayed reading to cut background.

In general, IC50 refers to the concentration needed to halve the response being measured. Regarding `Cc1nnc(C(=O)NC(C)(C)c2nc(C(=O)NCc3ccc(F)cc3)c(O)c(=O)n2C)o1` [RAL, raltegravir, reference compound], the concentration for half-maximal inhibition (IC50) was determined as 58 ± 10 nM.

For the origin of these results see article PMC5357622, “Chelation Motifs Affecting Metal-dependent Viral Enzymes: N′-acylhydrazone Ligands as Dual Target Inhibitors of HIV-1 Integrase and Reverse Transcriptase Ribonuclease H Domain” (Frontiers in Microbiology, 2017).
